# The list shows a part of the results, in another mix than the full data. Some salts or complexes appear as unconnected parts, following the source record. Activity calls are given as the source filed them.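 The calls were made as follows: active = calcium-response B-score plate-corrected more than 3 library SD below zero, starting fluorescence within 5 deviations, no agonist response on first addition; inactive = the rest.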
# The chains behind the UniProt entries cited, without tags or fusion partners.
# UniProt Q96LB2, whole entry: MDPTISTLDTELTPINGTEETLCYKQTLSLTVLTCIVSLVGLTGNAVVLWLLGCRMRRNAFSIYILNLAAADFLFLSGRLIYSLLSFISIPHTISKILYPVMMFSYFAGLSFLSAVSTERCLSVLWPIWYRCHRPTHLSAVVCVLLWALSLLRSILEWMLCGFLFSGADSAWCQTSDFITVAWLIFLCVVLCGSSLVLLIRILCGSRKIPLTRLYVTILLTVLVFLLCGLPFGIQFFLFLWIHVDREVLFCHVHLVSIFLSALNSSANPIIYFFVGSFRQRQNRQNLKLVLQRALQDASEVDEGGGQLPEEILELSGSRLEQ
# Target: Mas-related G-protein coupled receptor member X1 (Homo sapiens) (UniProt Q96LB2)
# Assay: blockade of BAM8-22-evoked MrgX1 calcium response – HEK293 cells, Fluo-4 calcium flux, primary screen (AID 588676)
# Conditions: Fluo-4, BAM8-22 antagonism, at 10 µM
row,Compound,outcome
1,O=P(Nc1ccccn1)(c1cccc2ccccc12)c1cccc2ccccc12,inactive
2,CP(=O)(Oc1ccccc1)OC(c1ccccc1)C(F)(F)F (stereo not given),inactive
3,COP1(=S)c2c(C)nn(CCC#N)c2N=C(c2ccc(F)cc2)N1C (stereo not given),inactive
4,CP(=O)(Nc1ccc(SC(F)(F)F)cc1)Oc1ccc(Cl)cc1 (stereo not given),inactive
5,Cc1cccc(C)c1OP(C)(=O)Nc1ccc(SC(F)(F)F)cc1 (stereo not given),inactive
6,Cc1cc(C)cc(OP(C)(=O)Nc2ccc(SC(F)(F)F)cc2)c1 (stereo not given),inactive
7,O=C(Nc1ccncc1[N+](=O)[O-])c1ccc([N+](=O)[O-])cc1[N+](=O)[O-],inactive
8,CP(=O)(NC(=O)Nc1ccccc1)Oc1ccccc1 (stereo not given),inactive
9,O=C(COc1ccccc1)OC1CN2CCC1CC2 (stereo not given),inactive
10,CCc1ccc(OP(C)(=O)N2CCN(c3ccc([N+](=O)[O-])cc3)CC2)cc1 (stereo not given),inactive
11,O=[N+]([O-])c1cc([N+](=O)[O-])c(O)c([N+](=O)[O-])c1.c1ccc(Oc2ccncc2)cc1,inactive
12,CCOC(=O)c1ccc(NC(=O)C(C)(CCl)SC)cc1 (stereo not given),inactive
13,CCOC(=O)c1ccc(NP(C)(=O)Oc2ccc(OC)cc2)cc1 (stereo not given),inactive
14,CCOP(C)(=S)SCC(=O)NC(C)C(=O)O (stereo not given),inactive
15,O=C(OC1CN2CCC1CC2)c1cccc([N+](=O)[O-])c1 (stereo not given),inactive
16,CP(=O)(Nc1ccccn1)Oc1ccc(Cl)cc1 (stereo not given),inactive
17,CCC(C)N(CC(C)C)C(=S)SC(NC(C)=O)C(Cl)(Cl)Cl (stereo not given),inactive
18,CCOP(=O)(Nc1ccc(C)cn1)OCC,inactive
19,CN(CCCl)Cc1cc(Cl)c(NC2=NCCN2)c(Cl)c1,inactive
20,O=[N+]([O-])c1cc([N+](=O)[O-])c(-n2nnc3ccccc32)c([N+](=O)[O-])c1,inactive
21,CCOP(=O)(NC(=NC(C)c1ccccc1)NC(C)c1ccccc1)OCC (stereo not given),inactive
22,CCC1=CC2Cc3nc4ccc(Cl)cc4c(N)c3C(C1)C2 (stereo not given),inactive
23,O=P1(Nc2ccccn2)COc2ccccc2OC1,inactive
24,CC(C)(C)C(=O)NC(Sc1ncccn1)C(Cl)(Cl)Cl (stereo not given),inactive
25,Clc1n[nH]nc1-c1nn[nH][15n]1,inactive
26,COc1ccccc1CNC(=O)COC(=O)C(O)(c1ccccc1)c1ccccc1,inactive
27,O=[N+]([O-])c1cc([N+](=O)[O-])c(-c2cnn(-c3ccccc3)c2)c([N+](=O)[O-])c1,inactive

row,Compound,outcome
1,Cc1nc2ccc3ccccc3c2s1.O=[N+]([O-])c1cc([N+](=O)[O-])c(O)c([N+](=O)[O-])c1,inactive
2,CC1(CBr)Cn2c(nc3ccccc3c2=O)S1 (stereo not given),inactive
3,O=[As](O)(c1ccccc1Br)c1ccccc1Br,inactive
4,CN(C(=O)Cc1ccc(Cl)c(Cl)c1)[C@@H]1CCCC[C@H]1N1CCCC1,inactive
5,CC(C)/C=N\N=C(\N)N[N+](=O)[O-],inactive
6,COc1cc(C2NCCC3(OCCO3)C2(C)C)cc(OC)c1OC.O=[N+]([O-])c1cc([N+](=O)[O-])c(O)c([N+](=O)[O-])c1 (stereo not given),inactive
7,Cc1ccc(C(=O)OC2CN3CCC2CC3)cc1 (stereo not given),inactive
8,CC1CCC(C(C)C)C(OP(=O)(Nc2ccccn2)c2ccccc2)C1 (stereo not given),inactive
9,Cc1nn(-c2ccccc2)c2c1P(=O)(N1CCOCC1)N(C)C(c1ccccc1)=N2 (stereo not given),inactive
10,O=C(/C=C/c1ccccc1)OC1CN2CCC1CC2 (stereo not given),inactive
11,CCOC(=O)C(CC)C1=NC(C)(C)Cc2ccccc21.O=[N+]([O-])c1cc([N+](=O)[O-])c(O)c([N+](=O)[O-])c1 (stereo not given),inactive
12,CC1=C2N=C(C=C3N=C(C(C)=C4[N-][C@@](C)([C@@H]5N=C1[C@](C)(CCC(=O)NC[C@@H](C)OP(=O)([O-])O[C@H]1[C@@H](O)[C@@H](n6cnc7cc(C)c(C)cc76)O[C@@H]1CO)[C@H]5CC(N)=O)[C@@](C)(CC(N)=O)[C@@H]4CCC(N)=O)[C@@](C)(CC(N)=O)[C@@H]3CCC(N)=O)C(C)(C)[C@@H]2CCC(N)=O.[C-]#N.[Co+3],inactive
13,CN(C)C1(CNC(=O)c2ccc(S(C)(=O)=O)cc2)CCCCC1,inactive
14,O=[N+]([O-])c1cc([N+](=O)[O-])c(Nc2nnnn2CCO)c([N+](=O)[O-])c1,inactive
15,CN1CCCCC1COC(=O)C1(O)c2ccccc2CCc2ccccc21 (stereo not given),inactive
16,COc1ccccc1OP(C)(=O)Nc1c(C)cccc1C (stereo not given),inactive
17,O=P1(Nc2ncccn2)COc2ccccc2OC1,inactive
18,O=[As](O)(c1cccs1)c1cccs1,inactive
19,Cc1ccc(OCC(=O)OC2CN3CCC2CC3)cc1 (stereo not given),inactive
20,O=P1(Nc2ccc(Br)cn2)COc2ccccc2OC1,inactive
21,CCCOc1ccc(NP(C)(=O)Oc2ccc(Cl)cc2)cc1 (stereo not given),inactive
22,CP(=O)(Nc1ccc(SC(F)(F)F)cc1)Oc1ccccc1 (stereo not given),inactive
23,Nc1cccc([As](=O)(O)c2ccccc2)c1,inactive
24,CS(=O)(=O)c1cc([N+](=O)[O-])c2no[n+]([O-])c2c1,inactive
25,O=P(Nc1nccs1)(Oc1ccccc1)Oc1ccccc1,inactive
26,O=P(Nc1nccs1)(c1ccccc1)c1nc2ccccc2s1 (stereo not given),inactive
27,O=C(O)c1cccc(Nc2c([N+](=O)[O-])cc([N+](=O)[O-])cc2[N+](=O)[O-])c1,inactive

row,Compound,outcome
1,CCOP1(=S)c2c(C)nn(CCC#N)c2N=C(c2ccccc2F)N1C (stereo not given),inactive
2,O=C(O)COc1ccc([As](=O)(O)O)cc1[N+](=O)[O-],inactive
3,Nc1ccccc1[As](=O)(O)c1ccccc1,inactive
4,NC(=O)Nc1ccc([As](=O)(O)O)cc1,inactive
5,CC1=NCCc2c1[nH]c1ccccc21.O=[N+]([O-])c1cc([N+](=O)[O-])c(O)c([N+](=O)[O-])c1,inactive
6,CN(C(=O)Cc1ccc(Cl)c(Cl)c1)[C@H]1CC[C@@]2(CCCO2)C[C@@H]1N1CCCC1,inactive
7,O=[N+]([O-])c1ccc2c(c1)nnn2O,inactive
8,CN(C)C(=O)c1cc([N+](=O)[O-])cc2c1-c1c(cc([N+](=O)[O-])cc1[N+](=O)[O-])C2=O,inactive
9,CCOP1(=S)c2c(C)nn(CCC#N)c2N=C(c2ccc(F)cc2)N1C (stereo not given),inactive
10,CN(C(=O)Cc1ccccc1)[C@@H]1CC[C@]2(CCCO2)C[C@H]1N1CCCC1,inactive
11,N#CCCN(C(=O)COC(=O)C(O)(c1ccccc1)c1ccccc1)c1ccc(F)cc1,inactive
12,CS(=O)(=O)c1ccc(Cl)c(NC(=O)COC(=O)C(O)(c2ccccc2)c2ccccc2)c1,inactive
13,COc1ccccc1OP(C)(=O)Nc1cccc(Br)c1 (stereo not given),inactive
14,O=[As](O)(O)c1cccnc1,inactive
15,COc1cc(C(=O)NCC2(N3CCOCC3)CCCCC2)cc(Cl)c1OC(C)C,inactive
16,O=C(OC1CN2CCC1CC2)c1ccc(Cl)cc1 (stereo not given),inactive
17,CCOC(=O)c1ccc(NP(C)(=O)Oc2cc(C)cc(C)c2)cc1 (stereo not given),inactive
18,Cc1cc(C)cc(OP(C)(=O)Nc2ccc(C)cc2C)c1 (stereo not given),inactive
19,Cc1cccc(OCC(=O)OC2CN3CCC2CC3)c1 (stereo not given),inactive
20,O=[As](O)(c1cccc(O)c1)c1cccc(O)c1,inactive
21,Cc1ccc(C)c(NP(C)(=O)Oc2ccccc2)c1 (stereo not given),inactive
22,CCCOP(=S)(Nc1nc(N)cc(=O)[nH]1)OCCC,inactive
23,Nc1cccc2c([As](=O)(O)O)cccc12,inactive
24,Cc1ccc(NCCc2c([N+](=O)[O-])cc([N+](=O)[O-])cc2[N+](=O)[O-])cc1,inactive
25,Cc1cc(C)cc(OP(C)(=O)Nc2ccccn2)c1 (stereo not given),inactive
26,CP(=O)(Nc1cccc(Br)c1)Oc1ccccc1 (stereo not given),inactive
27,CCOP(=O)(Nc1cccc2ccccc12)OCC,inactive

row,Compound,outcome
1,CCOc1ccc(C2=NCC(CBr)S2)cc1 (stereo not given),inactive
2,O=P1(Nc2nc3ccc(Cl)cc3s2)COc2ccccc2O1 (stereo not given),inactive
3,CP(=O)(Nc1ccccc1F)Oc1ccccc1 (stereo not given),inactive
4,CC(C)c1ccc(OP(C)(=O)Nc2ccc(SC(F)(F)F)cc2)cc1 (stereo not given),inactive
5,CC(C)(C)C(=O)NC(Sc1ccccc1)C(Cl)(Cl)Cl (stereo not given),inactive
6,O=C(OC1CN2CCC1CC2)c1ccc([N+](=O)[O-])cc1 (stereo not given),inactive
7,CC(=O)c1ccc(N2CC2c2ccncc2)cc1 (stereo not given),inactive
8,C[C@H]1OP(=O)(Oc2ccccc2)C[C@@H]2O[C@@H]21 (stereo not given in full),inactive
9,C[C@@H]1C=CCP(=O)(Oc2ccccc2)O1 (stereo not given in full),inactive
10,O=C(OCCN1CCN(CCOCc2ccccc2)CC1)C(O)(c1ccccc1)c1ccccc1,inactive
11,CC(=O)Nc1ccc(Oc2c([N+](=O)[O-])cc([N+](=O)[O-])cc2[N+](=O)[O-])cc1,inactive
12,CC(=O)Nc1ccc([As](=O)(O)O)c(O)c1,inactive
13,COc1ccc2c(c1O)-c1c(O)c(OC)cc3c1[C@H](C2)[N+](C)(C)CC3.O=[N+]([O-])c1cc([N+](=O)[O-])c([O-])c([N+](=O)[O-])c1[O-],inactive
14,O=C(NC1CCS(=O)(=O)C1)NP(=S)(Oc1ccccc1)Oc1ccccc1 (stereo not given),inactive
15,CCNC(=S)/N=C(\N)N[N+](=O)[O-],inactive
16,CCOC(=O)NC(Sc1ccccc1)C(Cl)(Cl)Cl (stereo not given),inactive
17,Cc1ccc(NP(=O)(Oc2cccc(C)c2)Oc2cccc(C)c2)nc1,inactive
18,c1ccc(-c2nn[nH]n2)c(-c2nn[nH]n2)c1,inactive
19,CCOC(=O)c1ccc(NP(C)(=O)Oc2ccc(F)cc2)cc1 (stereo not given),inactive
20,COc1ccc(OP(C)(=O)Nc2ccc(SC(F)(F)F)cc2)cc1 (stereo not given),inactive
21,Cc1ccc(OP(=O)(Nc2ccccn2)Oc2ccc(C)cc2)cc1,inactive
22,CC(=O)NC(SC(=S)N(CC(C)C)CC(C)C)C(Cl)(Cl)Cl (stereo not given),inactive
23,COC(=O)c1cc2c(s1)N=C(c1ccccc1)N(C)P2(=O)N1CCOCC1 (stereo not given),inactive
24,CCC(=O)N1C2C3N(C(=O)CC)C1C1N(C(=O)CC)C(C(N1C(=O)CC)N3C(=O)CC)N2C(=O)CC,inactive

# Reference: PubChem BioAssay AID588676 (Johns Hopkins Ion Channel Center, 2011)
